Source: patent US9890152B2 (Genentech, Inc., priority 2012, dated 2018)
“And” between values parts separate entries of the source, which are not always exact repeats. Equal entries are not always repeated. Structures can show the parent of a compound that is named as a salt.

The chains behind the UniProt entries cited, without tags or fusion partners. Residues count along the entry.
UniProt P00533, 25-1210 T790M/L858R limits assumed: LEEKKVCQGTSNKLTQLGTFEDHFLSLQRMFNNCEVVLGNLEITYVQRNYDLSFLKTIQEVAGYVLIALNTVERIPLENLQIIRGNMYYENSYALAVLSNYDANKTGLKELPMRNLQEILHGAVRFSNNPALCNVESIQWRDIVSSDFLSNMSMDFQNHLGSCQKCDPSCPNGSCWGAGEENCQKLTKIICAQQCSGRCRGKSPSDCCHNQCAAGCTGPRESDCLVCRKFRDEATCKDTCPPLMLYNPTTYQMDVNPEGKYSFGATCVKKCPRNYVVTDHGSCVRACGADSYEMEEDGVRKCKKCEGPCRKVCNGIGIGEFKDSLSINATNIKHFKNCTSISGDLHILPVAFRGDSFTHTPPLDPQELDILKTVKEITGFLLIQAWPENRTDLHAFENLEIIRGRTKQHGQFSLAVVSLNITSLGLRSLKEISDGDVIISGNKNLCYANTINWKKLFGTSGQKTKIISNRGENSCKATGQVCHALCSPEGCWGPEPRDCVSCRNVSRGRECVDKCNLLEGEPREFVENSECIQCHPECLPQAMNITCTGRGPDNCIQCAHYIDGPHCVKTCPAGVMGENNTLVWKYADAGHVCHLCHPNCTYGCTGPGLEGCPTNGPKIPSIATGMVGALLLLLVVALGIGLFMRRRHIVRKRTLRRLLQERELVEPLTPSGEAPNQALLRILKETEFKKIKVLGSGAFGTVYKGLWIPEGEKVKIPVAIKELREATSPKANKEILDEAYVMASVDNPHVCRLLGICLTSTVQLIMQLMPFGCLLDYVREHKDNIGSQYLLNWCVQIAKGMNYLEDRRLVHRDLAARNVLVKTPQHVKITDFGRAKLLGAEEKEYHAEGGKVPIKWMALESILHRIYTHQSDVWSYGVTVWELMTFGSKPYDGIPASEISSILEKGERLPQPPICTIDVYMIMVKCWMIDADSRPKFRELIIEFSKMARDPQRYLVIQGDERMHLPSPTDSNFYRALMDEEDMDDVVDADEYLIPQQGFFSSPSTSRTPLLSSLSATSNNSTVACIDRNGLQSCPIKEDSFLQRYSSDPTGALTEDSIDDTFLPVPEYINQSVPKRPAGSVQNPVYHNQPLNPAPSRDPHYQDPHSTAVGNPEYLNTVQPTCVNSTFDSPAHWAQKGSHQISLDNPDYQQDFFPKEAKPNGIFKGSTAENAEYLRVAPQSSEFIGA

The molecules below were run against EGFR T790M L858R (Homo sapiens, UniProt P00533, L858R/T790M) (assay: biochemical). Details: EGFR(T790M/L858R) Ki (μM), 5 μM ATP, 30 min, room temperature; apparent Ki (Morrison) converted by Cheng-Prusoff, Km of ATP 1.3 μM.

Row | Compound | Ki
1 | Cc1nc2cnc(Nc3ccnc(-n4cnc(C(C)(C)O)c4)n3)cc2n1C(C)C [Example 423, 2-(1-(4-((1-isopropyl-2-methyl-1H-imidazo[4,5-c]pyridin-6-yl)amino)pyrimidin-2-yl)-1H-imidazol-4-yl)propan-2-ol] | 0.169 µM
2 | COC1(CO)CCN(c2nccc(Nc3cc4c(cn3)nc([C@@H](C)O)n4[C@@H](C)C(F)(F)F)n2)CC1 [Example 665] | 0.00331 µM
3 | CO[C@H]1CCN(c2nccc(Nc3cc4c(cn3)nc(CO)n4C(C)C)n2)C[C@H]1F (racemic) [Example 526, (±)-{6-[2-((cis)-3-Fluoro-4-methoxypiperidin-1-yl)pyrimidin-4-ylamino]-1-isopropyl-1H-imidazo[4,5-c]pyridin-2-yl}methanol] | 0.00285 µM
4 | Cc1nc2cnc(Nc3ccnc(-c4cnn(C)c4)n3)cc2n1C(C)C [Example 365, 1-Isopropyl-2-methyl-N-(2-(1-methyl-1H-pyrazol-4-yl)pyrimidin-4-yl)-1H-imidazo[4,5-c]pyridin-6-amine] | 0.0739 µM
5 | COC1CCCN(c2nccc(Nc3cc4c(cn3)ncn4C(C)C)n2)C1 (centres unmarked) [Example 72, 1-isopropyl-N-(2-(3-methoxypiperidin-1-yl)pyrimidin-4-yl)-1H-imidazo[4,5-c]pyridin-6-amine] | 0.173 µM
6 | Cc1nc2cnc(Nc3ccnc(-c4cnn(S(=O)(=O)C5CNC5)c4)n3)cc2n1C(C)C [Example 467, N-(2-(1-(azetidin-3-ylsulfonyl)-1H-pyrazol-4-yl)pyrimidin-4-yl)-1-isopropyl-2-methyl-1H-imidazo[4,5-c]pyridin-6-amine] | 0.00629 µM
7 | CC(C)n1cnc2cnc(Nc3ccnc(N4CC5(CCCOC5)C4)n3)cc21 [Example 213] | 0.812 µM
8 | COc1ccc(-c2nccc(Nc3cc4c(cn3)ncn4C(C)C)n2)cn1 [Example 54, 1-Isopropyl-N-(2-(6-methoxypyridin-3-yl)pyrimidin-4-yl)-1H-imidazo[4,5-c]pyridin-6-amine] | 0.0418 µM
9 | CC(C)n1cnc2cnc(Nc3ccnc(N4CCC5(CCN5)CC4)n3)cc21 [Example 228] | 0.548 µM
10 | C[C@@H](O)c1nc2cnc(Nc3ccnc(N4CC[C@@H](O)[C@@H](F)C4)n3)cc2n1[C@H](C)C(F)(F)F [Example 687] | 0.0159 µM
11 | C[C@H](n1c([C@@H](C)O)nc2cnc(Nc3ccnc(N4CC[C@H](O)[C@H](F)C4)n3)cc21)C(F)(F)F [Example 289, (3R,4S)-3-Fluoro-1-{4-[2-((R)-1-hydroxyethyl)-1-((S)-2,2,2-trifluoro-1-methylethyl)-1H-imidazo[4,5-c]pyridin-6-ylamino]pyrimidin-2-yl}-piperidin-4-ol] | 0.00135 µM
12 | CC(C)n1cnc2cnc(Nc3ccnc(N4CCC(NC(N)=O)CC4)n3)cc21 [Example 73, 1-(1-(4-(1-isopropyl-1H-imidazo[4,5-c]pyridin-6-ylamino)pyrimidin-2-yl)piperidin-4-yl)urea] | 0.11 µM
13 | Cc1nc2cnc(Nc3ccnc(N4CNC(=O)C4)n3)cc2n1C(C)C [Example 318, 1-[4-(1-Isopropyl-2-methyl-1H-imidazo[4,5-c]pyridin-6-ylamino)pyrimidin-2-yl]imidazolidin-4-one] | 0.462 µM
14 | Cc1nc2cnc(Nc3ccnc(N4CCC(O)CC4)n3)cc2n1C(C)C [Example 503, 1-(4-((1-Isopropyl-2-methyl-1H-imidazo[4,5-c]pyridin-6-yl)amino)pyrimidin-2-yl)piperidin-4-ol] | 0.0334 µM
15 | CC(C)n1cc(-c2nccc(Nc3cc4c(cn3)ncn4C(C)C)n2)cn1 [Example 98, 1-isopropyl-N-(2-(1-isopropyl-1H-pyrazol-4-yl)pyrimidin-4-yl)-1H-imidazo[4,5-c]pyridin-6-amine] | 0.182 µM
16 | COCC(C)(CNc1nccc(Nc2cc3c(cn2)nc(C)n3C(C)C)n1)C(N)=O (centres unmarked) [Example 581, 3-[4-(1-Isopropyl-2-methyl-1H-imidazo[4,5-c]pyridin-6-ylamino)pyrimidin-2-ylamino]-2-methoxymethyl-2-methylpropionamide] | 0.108 µM
17 | COC1CCN(c2nccc(Nc3cc4c(cn3)c(C(=O)NC3CCOCC3)cn4C(C)C)n2)CC1 [Example 117, 1-isopropyl-6-((2-(4-methoxypiperidin-1-yl)pyrimidin-4-yl)amino)-N-(tetrahydro-2H-pyran-4-yl)-1H-pyrrolo[3,2-c]pyridine-3-carboxamide] | 0.0037 µM
18 | CNC(=O)c1cn(-c2nccc(Nc3cc4c(cn3)nc(C)n4C(C)C)n2)cn1 [Example 61, 1-(4-((1-Isopropyl-2-methyl-1H-imidazo[4,5-c]pyridin-6-yl)amino)pyrimidin-2-yl)-N-methyl-1H-imidazole-4-carboxamide] | 0.787 µM
19 | CC(C)n1c(CO)nc2cnc(Nc3ccnc(N4CCC(O)(C(F)(F)F)CC4)n3)cc21 [Example 669] | 0.149 µM
20 | CCC(C)n1cc(C(=O)NC2CCOCC2)c2cnc(Nc3ccnc(N4CCC(O)C(C)(C)C4)n3)cc21 (mixture of isomers) [Example 384, 1-(sec-butyl)-6-((2-(4-hydroxy-3,3-dimethylpiperidin-1-yl)pyrimidin-4-yl)amino)-N-(tetrahydro-2H-pyran-4-yl)-1H-pyrrolo[3,2-c]pyridine-3-carboxamide] | 0.00238 µM
21 | CC(C)n1c(CO)nc2cnc(Nc3ccnc(N4C[C@@H]5C[C@H]4CO5)n3)cc21 [Example 691] | 0.219 µM
22 | CC(C)n1cnc2cnc(Nc3ccnc(N4CC5CNCC(C4)O5)n3)cc21 [Example 237] | 1.78 µM and 0.507 µM

Results, then the molecule that gave them:

Row | Ki | Compound
23 | 0.165 µM | Cc1nc2cnc(Nc3ccnc(N4CC[C@H](O)C4)n3)cc2n1C(C)C [Example 681]
24 | 0.22 µM | Cc1nc2cnc(Nc3ccnc(-c4cnn(CC5CNC5)c4)n3)cc2n1C(C)C [Example 429, N-(2-(1-(azetidin-3-ylmethyl)-1H-pyrazol-4-yl)pyrimidin-4-yl)-1-isopropyl-2-methyl-1H-imidazo[4,5-c]pyridin-6-]
25 | 0.756 µM | COCCCNc1nccc(Nc2cc3c(cn2)ncn3C(C)C)n1 [Example 82, N4-(1-isopropyl-1H-imidazo[4,5-c]pyridin-6-yl)-N2-(3-methoxypropyl)pyrimidine-2,4-diamine]
26 | 0.313 µM | Cc1nc2cnc(Nc3ccnc(N(C)CC(C)(C)C(N)=O)n3)cc2n1C(C)C [Example 584]
27 | 0.00111 µM | CC(C)n1cc(C(=O)N[C@@H]2CCN(C3COC3)C[C@@H]2F)c2cnc(Nc3ccnc(-c4cnn(S(=O)(=O)C5CC5)c4)n3)cc21 (racemic) [Example 372, (±)-6-((2-(1-(cyclopropylsulfonyl)-1H-pyrazol-4-yl)pyrimidin-4-yl)amino)-N-((cis)-3-fluoro-1-(oxetan-3-yl)piperidin-4-yl)-1-isopropyl-1H-pyrrolo[3,2-c]pyridine-3-carboxamide]
28 | 0.115 µM | CCOC1CCN(c2nccc(Nc3cc4c(cn3)ncn4C(C)C)n2)CC1 [Example 100, N-(2-(4-ethoxypiperidin-1-yl)pyrimidin-4-yl)-1-isopropyl-1H-imidazo[4,5-c]pyridin-6-amine]
29 | 0.000573 µM | CCC(C)n1cc(C(=O)NC2CCOC2)c2cnc(Nc3ccnc(-c4cnn(S(=O)(=O)C5CC5)c4)n3)cc21 (mixture of isomers) [Example 382, 1-(sec-butyl)-6-((2-(1-(cyclopropylsulfonyl)-1H-pyrazol-4-yl)pyrimidin-4-yl)amino)-N-(tetrahydrofuran-3-yl)-1H-pyrrolo [3,2-c]pyridine-3-carboxamide]
30 | 0.832 µM | CC(C)n1cnc2cnc(Nc3ccnc(N4CCC(C)(O)C4)n3)cc21 (centres unmarked) [Example 215]
31 | 0.637 µM | CC(C)n1cnc2cnc(Nc3ccnc(NC4CCS(=O)(=O)C4)n3)cc21 (single isomer, unassigned) [Example 109, 3-((4-((1-isopropyl-1H-imidazo[4,5-c]pyridin-6-yl)amino)pyrimidin-2-yl)amino)tetrahydrothiophene 1,1-dioxide]
32 | 0.465 µM | Cc1nc2cnc(Nc3ccnc(Nc4cc[nH]n4)n3)cc2n1C(C)C [Example 603]
33 | 0.0122 µM | C[C@H](n1c([C@@H](C)O)nc2cnc(Nc3ccnc(NCC(C)(C)S(C)(=O)=O)n3)cc21)C(F)(F)F [Example 663]
34 | 0.633 µM | Cc1nc2cnc(Nc3ccnc(-c4cnc(CO)s4)n3)cc2n1C(C)C [Example 361, (5-(4-((1-Isopropyl-2-methyl-1H-imidazo[4,5-c]pyridin-6-yl)amino)pyrimidin-2-yl)thiazol-2-yl)methanol]
35 | 0.0104 µM | O=S(=O)(C1CC1)n1cc(-c2nccc(Nc3cc4c(cn3)nc(CO)n4C3CCCC3)n2)cn1 [Example 481, (1-cyclopentyl-6-(2-(1-(cyclopropylsulfonyl)-1H-pyrazol-4-yl)pyrimidin-4-ylamino)-1H-imidazo[4,5-c]pyridin-2-yl)methanol]
36 | 0.00194 µM | Cc1nc2cnc(Nc3ccnc(-c4cnn(S(=O)(=O)C5CC5)c4)n3)cc2n1C(C)C(F)(F)F (centres unmarked) [Example 257, N-(2-(1-(Cyclopropylsulfonyl)-1H-pyrazol-4-yl)pyrimidin-4-yl)-2-methyl-1-(1,1,1-trifluoropropan-2-yl)-1H-imidazo[4,5-c]pyridin-6-amine]
37 | 0.0208 µM | C[C@@H](O)c1nc2cnc(Nc3ccnc(N4CC[C@H](O)[C@H](F)C4)n3)cc2n1[C@H](C)C(F)(F)F [Example 688]
38 | 0.0033 µM | CC(C)n1cc(-c2cn[nH]n2)c2cnc(Nc3ccnc(-c4cn[nH]c4)n3)cc21 [Example 254, N-(2-(1H-pyrazol-4-yl)pyrimidin-4-yl)-1-isopropyl-3-(2H-1,2,3-triazol-4-yl)-1H-pyrrolo[3,2-c]pyridin-6-amine]
39 | 0.258 µM | COC1CCN(c2nccc(Nc3cc4c(cn3)nc(-c3cn[nH]c3)n4C)n2)CC1 [Example 21, [2-(4-Methoxypiperidin-1-yl)pyrimidin-4-yl]-[1-methyl-2-(1H-pyrazol-4-yl)-1H-imidazo[4,5-c]pyridin-6-yl]amine]
40 | 0.0412 µM | COC1CCN(c2nccc(Nc3cc4c(cn3)ncn4C3CCC3)n2)CC1 [Example 151, (1-Cyclobutyl-1H-imidazo[4,5-c]pyridin-6-yl)-[2-(4-methoxypiperidin-1-yl)pyrimidin-4-yl]amine formate salt]
41 | 0.0426 µM | COC1(CO)CCN(c2nccc(Nc3cc4c(cn3)nc(CO)n4C(C)C)n2)CC1 [Example 559, {6-[2-(4-Hydroxymethyl-4-methoxypiperidin-1-yl)pyrimidin-4-ylamino]-1-isopropyl-1H-imidazo[4,5-c]pyridin-2-yl}methanol]
